Source: patent US8383672B2, “Halogenated rhodamine derivatives and applications thereof” (Kiadis Pharma Canada Inc., priority 2001, dated 2013)

How the values were obtained:
[1] = system: S. epidermitis; experiment: Bacteriostatic activity of rhodamine derivatives against Staphilococcus epidermitis (photodynamic treatment, CFU/mL); format: cell-based; conditions: 10 μM; 514 nm light 180 minutes, 30 Joules/cm^2
Method: Staphilococcus epidermitis
The protocol used for the bacteriosidic inactivation was performed as described in Brasseur and coll. with few modifications for bacteriosidic potential assessment (Brasseur et al, 2000).
Bacterial was grown overnight in Lubria Broth medium (LB), 100 μl (≈1×10^7 bacteria) of each bacterial suspension was added to 4 ml of LB medium, a small aliquot of the bacterial suspension was taken out for bacterial titer prior to treatment expressed as CFU/mL. […] Each mixture of bacteria rhodamine derivative was incubated at 37° C. for 40 minutes. The bacteria-rhodamine suspensions were then treated and exposed to a 514 nm wavelength light for 180 minutes, for a total output energy of 30 Joules/cm^2. Following the treatment time, the bacteria-rhodamine suspensions were centrifuged at 3000 g, resuspended in 4 ml and serial dilutions were performed for each duplicate. 10 μL of the diluted bacterial suspensions were plated, the plates incubated overnight at 37° C. The bacteriostatic effect is expressed by the number of CFU/mL.
The protocol used for the bacteriosidic inactivation was performed as described in Brasseur and coll. without modification for bacteriosidic potential assessment (Brasseur et al, 2000).
Bacterial was grown overnight in Lubria Broth medium (LB), 100 μl (≈1×10^7 bacteria) of each bacterial suspension added to 4 ml of LB medium. […]

[2] = system: E. coli; experiment: Bacteriostatic activity of rhodamine derivatives against E. coli (photodynamic treatment, CFU/mL); conditions: 50 μM; 514 nm light 180 minutes, 30 Joules/cm^2

CCN(CC)c1ccc2c(-c3ccccc3C(=O)OCCCBr)c3ccc(=[N+](CC)CC)cc-3oc2c1 [HA-VIII-92, rhodamine B 3-bromopropyl ester]
antibacterial activity against S. epidermitis [1]: showed antibacterial activity
antibacterial activity against E. coli [2]: showed antibacterial activity
